The assay deals with PI 3-kinase beta (Homo sapiens, UniProt P42338). Kind of assay: Kinase Glo Luminescent Kinase Assay (Kglo), assay B. The settings on record: read-out: Assay B PI3Kβ IC50. The assay is classed as biochemical.

Sequences of proteins named here, by UniProt entry; tags and fusion partners are left off. A change or cut given only in a name is not applied to a line headed by its entry.
UniProt P42338: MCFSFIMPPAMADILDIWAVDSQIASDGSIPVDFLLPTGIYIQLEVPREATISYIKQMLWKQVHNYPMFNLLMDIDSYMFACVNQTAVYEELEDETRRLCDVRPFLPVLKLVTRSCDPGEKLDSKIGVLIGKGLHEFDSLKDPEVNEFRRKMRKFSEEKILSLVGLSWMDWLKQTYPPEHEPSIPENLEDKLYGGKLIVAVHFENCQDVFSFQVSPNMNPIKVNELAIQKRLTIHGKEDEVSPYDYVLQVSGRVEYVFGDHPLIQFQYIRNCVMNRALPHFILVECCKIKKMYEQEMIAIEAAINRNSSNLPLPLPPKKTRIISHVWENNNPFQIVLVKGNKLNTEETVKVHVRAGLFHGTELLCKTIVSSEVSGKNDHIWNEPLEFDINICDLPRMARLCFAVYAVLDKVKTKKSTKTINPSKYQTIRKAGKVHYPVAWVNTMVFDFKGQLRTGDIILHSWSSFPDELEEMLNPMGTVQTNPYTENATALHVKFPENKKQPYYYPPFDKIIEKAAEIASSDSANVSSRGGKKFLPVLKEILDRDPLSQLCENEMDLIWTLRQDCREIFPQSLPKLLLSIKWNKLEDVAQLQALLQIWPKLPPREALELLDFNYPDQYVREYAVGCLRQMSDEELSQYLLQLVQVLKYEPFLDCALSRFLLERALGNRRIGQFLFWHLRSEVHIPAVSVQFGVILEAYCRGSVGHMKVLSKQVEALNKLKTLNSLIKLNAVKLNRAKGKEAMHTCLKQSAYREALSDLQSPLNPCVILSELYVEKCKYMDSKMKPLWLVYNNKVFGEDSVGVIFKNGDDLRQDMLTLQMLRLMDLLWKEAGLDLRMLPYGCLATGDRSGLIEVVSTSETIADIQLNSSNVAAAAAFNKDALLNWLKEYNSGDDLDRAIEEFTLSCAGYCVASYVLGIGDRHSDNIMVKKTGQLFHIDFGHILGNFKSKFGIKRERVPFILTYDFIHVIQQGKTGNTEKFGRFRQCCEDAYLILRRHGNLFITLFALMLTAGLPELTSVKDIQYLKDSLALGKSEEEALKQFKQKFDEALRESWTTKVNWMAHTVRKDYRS

Each structure is given as a SMILES string.

As a reminder, the IC50 is the concentration at which inhibition is half-maximal.

Take `Cc1noc(-c2nc(-c3cc(S(=O)(=O)N[C@H]4CC[C@H](O)CC4)ccc3C)cnc2N)n1` [Example 2, Trans-3-[5-Amino-6-(3-methyl-[1,2,4]oxadiazol-5-yl)-pyrazin-2-yl]-N-(4-hydroxy-cyclohexyl)-4-methyl-benzenesulfonamide]: the IC50 was found to be 7.6 µM. As to `Cc1nnc(-c2nc(-c3cc(S(=O)(=O)N[C@H]4CC[C@H](O)CC4)ccc3C)cnc2N)o1` [Example 1, Trans-3-[5-Amino-6-(5-methyl-[1,3,4]oxadiazol-2-yl)-pyrazin-2-yl]-N-(4-hydroxy-cyclohexyl)-4-methyl-benzenesulfonamide], the concentration for half-maximal inhibition (IC50) was 5.86 µM.

The values above are taken from US10004732B2 (Novartis AG, priority 2014, dated 2018).
